Test: Biodistribution by fluorescence imaging after subcutaneous injection in healthy mice
Details: monitored 2 weeks

C[N+]1=C(C=CC2=CC(=CC=C3N(CCCCCC(=O)NCCCCCC(=O)N4Cc5ccccc5C#Cc5ccccc54)c4ccccc4C3(C)C)CCC2)C(C)(C)c2ccccc21.F[P-](F)(F)(F)(F)F [DBCO-Cy7]
fluorescence signal remaining at the injection site over time: most of its signal being gone after 1 week
